For one assay, the target named is T1, integrin αvβ5 (Homo sapiens, UniProt P06756+P18084).
T1 construct: host or cells: HT-29
As to the kind of experiment: Cell adhesion inhibition: HT-29 cells to vitronectin. As to conditions: adhesion of HT-29 cells to vitronectin; read-out: IC50 [Interaction towards targets] αvβ5. In kind it is cell-based.

Amino acid sequences for entries named in this document (tags omitted). Residues count along the entry.
UniProt P06756, 891-1048 limits assumed: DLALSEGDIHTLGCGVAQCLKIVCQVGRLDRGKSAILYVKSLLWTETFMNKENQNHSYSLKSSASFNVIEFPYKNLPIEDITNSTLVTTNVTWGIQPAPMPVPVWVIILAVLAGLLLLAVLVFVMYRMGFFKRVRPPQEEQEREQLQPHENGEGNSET
UniProt P06756, 31-889 limits assumed: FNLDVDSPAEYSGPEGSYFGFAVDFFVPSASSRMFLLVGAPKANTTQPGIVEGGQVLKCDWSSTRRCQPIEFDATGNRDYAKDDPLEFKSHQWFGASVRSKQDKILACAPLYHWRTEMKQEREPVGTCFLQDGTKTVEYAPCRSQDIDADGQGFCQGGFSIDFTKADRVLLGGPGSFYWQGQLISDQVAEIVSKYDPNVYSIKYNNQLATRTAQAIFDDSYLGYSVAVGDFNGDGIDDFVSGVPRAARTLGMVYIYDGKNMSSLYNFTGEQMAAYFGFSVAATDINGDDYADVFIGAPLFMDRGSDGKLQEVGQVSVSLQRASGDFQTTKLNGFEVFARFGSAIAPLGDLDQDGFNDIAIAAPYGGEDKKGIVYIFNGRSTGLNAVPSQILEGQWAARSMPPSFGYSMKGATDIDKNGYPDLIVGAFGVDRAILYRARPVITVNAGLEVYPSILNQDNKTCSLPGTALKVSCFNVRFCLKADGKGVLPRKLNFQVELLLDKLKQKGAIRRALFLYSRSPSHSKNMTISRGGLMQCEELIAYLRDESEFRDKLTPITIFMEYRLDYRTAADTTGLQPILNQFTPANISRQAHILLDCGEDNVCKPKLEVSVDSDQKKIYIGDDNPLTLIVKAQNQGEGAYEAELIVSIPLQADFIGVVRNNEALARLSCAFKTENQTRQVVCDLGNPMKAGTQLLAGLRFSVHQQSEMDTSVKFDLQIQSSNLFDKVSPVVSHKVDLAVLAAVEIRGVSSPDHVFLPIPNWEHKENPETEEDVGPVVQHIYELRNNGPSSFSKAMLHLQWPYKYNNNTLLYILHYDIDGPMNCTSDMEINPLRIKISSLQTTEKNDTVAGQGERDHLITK
UniProt P18084, 24-799: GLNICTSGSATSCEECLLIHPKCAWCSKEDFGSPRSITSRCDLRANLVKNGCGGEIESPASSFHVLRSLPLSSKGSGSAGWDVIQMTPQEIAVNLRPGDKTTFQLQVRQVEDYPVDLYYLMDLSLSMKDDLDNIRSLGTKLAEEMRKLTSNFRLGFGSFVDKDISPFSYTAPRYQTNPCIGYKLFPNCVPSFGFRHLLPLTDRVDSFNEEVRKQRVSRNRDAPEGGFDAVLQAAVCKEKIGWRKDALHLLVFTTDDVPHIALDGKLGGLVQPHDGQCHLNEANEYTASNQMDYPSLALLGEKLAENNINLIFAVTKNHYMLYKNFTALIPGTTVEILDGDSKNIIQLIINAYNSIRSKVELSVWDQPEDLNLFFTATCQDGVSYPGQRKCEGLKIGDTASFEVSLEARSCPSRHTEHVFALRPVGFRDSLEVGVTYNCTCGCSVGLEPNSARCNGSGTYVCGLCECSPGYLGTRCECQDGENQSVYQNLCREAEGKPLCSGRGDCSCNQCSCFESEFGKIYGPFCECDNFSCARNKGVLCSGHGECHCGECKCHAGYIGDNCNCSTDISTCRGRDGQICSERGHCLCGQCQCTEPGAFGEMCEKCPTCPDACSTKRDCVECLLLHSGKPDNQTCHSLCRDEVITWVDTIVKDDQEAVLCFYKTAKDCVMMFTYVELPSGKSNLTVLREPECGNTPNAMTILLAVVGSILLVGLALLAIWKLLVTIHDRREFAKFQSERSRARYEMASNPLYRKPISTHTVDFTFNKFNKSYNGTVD
UniProt P18564, 22-788: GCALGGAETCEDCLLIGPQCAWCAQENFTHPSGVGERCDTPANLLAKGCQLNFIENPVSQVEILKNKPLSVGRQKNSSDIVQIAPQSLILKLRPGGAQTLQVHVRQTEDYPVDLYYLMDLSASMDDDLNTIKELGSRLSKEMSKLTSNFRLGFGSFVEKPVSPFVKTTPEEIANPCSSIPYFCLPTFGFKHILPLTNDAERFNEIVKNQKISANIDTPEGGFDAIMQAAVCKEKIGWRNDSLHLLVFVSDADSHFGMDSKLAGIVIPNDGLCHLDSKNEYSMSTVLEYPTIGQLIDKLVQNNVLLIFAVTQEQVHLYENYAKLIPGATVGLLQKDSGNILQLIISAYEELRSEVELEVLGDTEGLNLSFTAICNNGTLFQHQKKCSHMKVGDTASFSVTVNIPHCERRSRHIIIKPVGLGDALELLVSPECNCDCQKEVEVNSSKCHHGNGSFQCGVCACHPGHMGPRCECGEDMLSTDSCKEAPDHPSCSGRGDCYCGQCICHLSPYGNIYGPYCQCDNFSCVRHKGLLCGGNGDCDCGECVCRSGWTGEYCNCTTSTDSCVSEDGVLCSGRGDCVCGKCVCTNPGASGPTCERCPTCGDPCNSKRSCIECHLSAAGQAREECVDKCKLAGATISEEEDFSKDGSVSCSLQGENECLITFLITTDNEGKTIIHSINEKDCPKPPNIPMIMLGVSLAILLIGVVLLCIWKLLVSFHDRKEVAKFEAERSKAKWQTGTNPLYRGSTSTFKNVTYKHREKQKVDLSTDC

The target in another assay is T2, integrin αvβ6 (Homo sapiens, UniProt P06756+P18564).
T2 construct: host or cells: HT-29
As to the kind of experiment: Cell adhesion inhibition: HT-29 cells to fibronectin. Format: cell-based. As to conditions: adhesion of HT-29 cells to fibronectin; read-out: IC50 [Interaction towards targets] αvβ6.

The text below walks through data of patent US10870684B2, “Disintegrin variants and pharmaceutical uses thereof” (National Cheng Kung University, priority 2014, dated 2020).

The term IC50 denotes the concentration that gives 50% inhibition. Turning to “rhodostomin [Rho wild-type, reference compound]”, the IC50 at integrin αvβ5 is 94.4 nM; at integrin αvβ6, 176 nM.
